Assay results as given in paper PMC2360155, “Novel retinoic acid metabolism blocking agents have potent inhibitory activities on human breast cancer cells and tumour growth” (British Journal of Cancer, 2007).

The chains behind the UniProt entries cited, without tags or fusion partners.
UniProt P62965, whole entry: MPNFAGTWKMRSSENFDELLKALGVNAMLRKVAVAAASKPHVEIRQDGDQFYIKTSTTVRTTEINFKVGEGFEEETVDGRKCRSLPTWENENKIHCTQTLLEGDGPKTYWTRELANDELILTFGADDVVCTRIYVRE
UniProt P11416, whole entry: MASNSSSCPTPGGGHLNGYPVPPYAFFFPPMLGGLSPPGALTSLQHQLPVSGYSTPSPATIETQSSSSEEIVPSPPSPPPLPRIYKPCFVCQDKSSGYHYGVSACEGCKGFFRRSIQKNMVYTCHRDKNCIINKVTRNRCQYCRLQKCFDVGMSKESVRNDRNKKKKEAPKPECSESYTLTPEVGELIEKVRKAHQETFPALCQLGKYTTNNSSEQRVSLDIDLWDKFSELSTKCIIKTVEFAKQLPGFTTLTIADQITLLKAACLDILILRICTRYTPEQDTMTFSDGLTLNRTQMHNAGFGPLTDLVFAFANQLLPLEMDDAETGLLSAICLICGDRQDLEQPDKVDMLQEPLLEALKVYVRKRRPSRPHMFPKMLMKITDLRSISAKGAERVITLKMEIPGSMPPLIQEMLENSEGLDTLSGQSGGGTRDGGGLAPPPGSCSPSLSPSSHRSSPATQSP

Legend:
CRABPI = molecular target: T1, CRABPI (Mus musculus, UniProt P62965); assay: CRABP competition binding assay, CRABPI; details: for comparison; read-out: CRAPBI Kd
T1 construct: Wild-type full-length cDNAs for mouse CRABPI and CRABPII were subcloned into the prokaryotic expression vector pRSETB; pRSETB vector fusion leader (purified on Ni-NTA, so a His tag); made in house; host or cells: Escherichia coli BL21(DE3)pLys
Procedure: Wild-type full-length cDNAs for mouse CRABPI and CRABPII were subcloned into the prokaryotic expression vector pRSETB and transformed into Escherichia coli strain BL21(DE3)pLys ([Chen et al, 1995]). Recombinant fusion proteins were prepared essentially as we have described previously using Ni-NTA resin ([Chen et al, 1995]). The binding of each RAMBA to CRABPI and CRABPII was determined by competition binding assays as described previously ([Chen et al, 1995]). […] IC50 values were calculated as described above in the RAR binding studies.

RARα [1] = molecular target: T2, RARα (Mus musculus, UniProt P11416); assay: Transactivation assay (RARE-CAT reporter, CV-1 cells), RARα; type: cell-based; details: 50% of maximal activity obtained with 10^−6 M all-trans-RA
Procedure: Briefly, CV-1 cells were cotransfected with 4 μg RAR subtype (RARα, RARβ or RARγ) expression vector construct in pSG5, 4 μg RARE-CAT reporter DNA and 1 μg pCMV-β-gal DNA. Twenty-four hours following transfection, the cells were treated with various concentrations of each RAMBA ranging from 10^−11–10^−5 M along with an ethanol carrier control. Additional cells were treated with 10^−6 M all-trans-RA for normalisation. Twenty-four hours later, the cells were harvested and CAT and β-gal activities were assayed.

RARα [2] = molecular target: T2, RARα; assay: Retinoid receptor competition binding assay, RARα; parameters: The full-length cDNA clones for RARα, RARβ, RARγ and RXRα were cloned into the prokaryotic expression vector pET29; S-Tag; made in house; host or cells: prokaryotic host (pET29 vector)

Structure (SMILES): CC1=C(/C=C/C(C)=C/C=C/C(C)=C/C(=O)O)C(C)(C)CCC1 [ATRA, all-trans-retinoic acid, reference compound]
- Kd (CRABPI): 4 nM
- EC50 (RARα [1]): 20 nM
- Kd (RARα [2]): 2 nM
